## Measured affinities in a library of Ab-91 heavy chain variants

Values reported by Engelhart et al. 2022, doi:10.1038/s41597-022-01779-4 (FLAb copy).

The target is the same throughout: PDVDLGDISGINAS, from the HR2 region of SARS-CoV-2 spike.

The variants keep the light chain, the linker and the frameworks of Ab-91 (scFv order VL, a (GGGGS)3 linker, VH).
VL: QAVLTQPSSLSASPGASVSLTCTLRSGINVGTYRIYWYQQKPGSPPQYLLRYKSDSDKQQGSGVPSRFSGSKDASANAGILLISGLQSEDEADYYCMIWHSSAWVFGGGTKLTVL
VH: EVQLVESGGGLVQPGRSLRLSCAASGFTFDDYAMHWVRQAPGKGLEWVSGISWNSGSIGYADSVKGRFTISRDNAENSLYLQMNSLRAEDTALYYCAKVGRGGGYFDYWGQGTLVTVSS

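In library AAYL51, one, two or three CDR residues were substituted; doubles and triples were drawn at random. The assay is AlphaSeq: two haploid yeast populations carry antibody and antigen on their surface. Binding brings cells together so that they mate, and sequencing counts the barcode pairs among the diploids. Scores were corrected for input abundance and mapped to Kd with protein pairs of known affinity run in the same pool. Each pool was mated in three replicate cultures.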

The parent's heavy chain CDRs are GFTFDDYAMH, GISWNSGSIGYADSVK, VGRGGGYFDY; each variant's own CDRs replace them letter for letter. Values are log10 of the apparent Kd in nM; lower means stronger binding. "nd" means that the variant was in the library but no mating with the target was seen in that replicate; the authors take this as a sign of poor binding, and no number exists.

Variant GFTFDDYATH / NISWNSGSIGPADSVK / VGRGGGYFDY gave nd, nd, nd (controls 2 of 9).
Variant GFTFDDYAMH / GISWNSGSIGYADSVK / VGGGGPCFDY gave 1.02, 1.22, 0.40 (controls 1 of 9).
Variant GFTFDDFAMH / GISWNSPSIGYADSVK / VGLGGGYFDY gave nd, nd, nd (controls 0 of 9).
Variant GFTFDDYPMH / GIHWNSGSIGYADSVK / EGRGGGYFDY gave nd, nd, nd (controls 1 of 9).
Variant GFTFDDYAMH / GISWMSQSIGYADSVK / VGRGGGYFDY gave 4.11, nd, 3.91 (controls 1 of 9).
Variant GFTFDDYFMH / GISWNSGSIGYADHVK / HGRGGGYFDY gave nd, nd, 3.54 (controls 1 of 9).
Variant GFTFDDYAMH / GISWNSALIGYADSVK / VGRGGGYFDY gave nd, nd, nd (controls 0 of 9).
Variant GFTFDDYAMH / GISPNSGSIGYADSVK / VGRGGGYVDL gave 4.91, nd, 3.80 (controls 1 of 9).
Variant GFAFDDYLMH / GISWNMGSIGYADSVK / VGRGGGYFDY gave nd, nd, nd (controls 2 of 9).
Variant GFTFDDYPMH / GKSWNSNSIGYADSVK / VGRGGGYFDY gave nd, nd, nd (controls 1 of 9).
Variant QFTFDDYAMH / GILWNSGSIGYADSVK / VGHGGGYFDY gave nd, nd, nd (controls 2 of 9).
Variant GTTFDDYAMH / GISWNSGSIVYADSVK / VGRMGGYFDY gave nd, 4.57, 3.54 (controls 3 of 9).
Variant IFTFDDYAEH / GISWNSGSIGYADSVK / VGRGGAYFDY gave nd, nd, nd (controls 0 of 9).
Variant GFTFDDYAMH / GIKWNSGSIGYADSVK / VGRGNCYFDY gave 4.54, 5.97, nd (controls 3 of 9).
Variant GFTFDDYTRA / GISWNSGSIGYADSVK / VGRGGGYFDY gave 4.70, 4.75, nd (controls 4 of 9).
Variant GFTFDDYAMH / GISWNSGSSRYADSVK / VARGGGYFDY gave 5.77, nd, nd (controls 0 of 9).
Variant GFTFDDYAMH / GISWNSGSIGYADSVK / VGRGMGYCDK gave 4.08, nd, nd (controls 1 of 9).
Variant GFTFDDYRMH / GISWNSGSIGYADSVK / VGVGTGYFDY gave nd, 5.38, nd (controls 4 of 9).
Variant GFTFDDYAMH / GISWNSGSIGYLDSVK / VGRGGTYFDF gave 4.18, 3.59, 3.85 (controls 7 of 9).
Variant GFTFDDYAMH / GISWNSYSIGYADSVK / VGRGGGHFKY gave 5.60, nd, 4.33 (controls 1 of 9).
Variant GFTFDDYAMK / GISENSGSIGDADSVK / VGRGGGYFDY gave nd, nd, 3.00 (controls 2 of 9).
Variant GFTFDDYAMH / GISCNSGSIGYADSVK / VGRVGGYLDY gave 3.02, 2.79, 1.81 (controls 1 of 9).
Variant GFTFDDYTMH / GISDNSGSIGYADFVK / VGRGGGYFDY gave 5.58, 4.20, nd (controls 1 of 9).
Variant GFTFDDYAMH / GIIWNSYLIGYADSVK / VGRGGGYFDY gave nd, 5.81, 4.00 (controls 6 of 9).
Variant AFTMVDYAMH / GISWNSGSIGYADSVK / VGRGGGYFDY gave 3.62, nd, 3.76 (controls 5 of 9).
Variant GFTVDDYAMR / GISWNGGSIGYADSVK / VGRGGGYFDY gave 4.85, 6.55, 5.47 (controls 6 of 9).
Variant GFPFDDAAMH / GIPWNSGSIGYADSVK / VGRGGGYFDY gave 4.61, nd, 4.69 (controls 5 of 9).
Variant GFTYDDYAMH / GISMNSGSIGYADSVK / VGRGGGYFDE gave 1.44, 1.41, 0.90 (controls 5 of 9).
Variant GFTSDDYAMH / GISWNSGSIGYADSVK / VGRGGGYFDE gave nd, nd, nd (controls 0 of 9).
Variant GHTFDDYAMH / GPPWNSGSIGYADSVK / VGRGGGYFDY gave nd, nd, nd (controls 0 of 9).
Variant GFTFDDYAMH / GMSWNSGSIGYAISVK / VGRGGHYFDY gave nd, nd, nd (controls 0 of 9).
Variant GFTFDDYAMA / GISWNSGSIGYADSVM / VGRGGGYFVY gave 4.69, nd, nd (controls 6 of 9).
Variant GFTFDVYAMH / GISWNSMSIGYIDSVK / VGRGGGYFDY gave 3.70, 2.51, 2.74 (controls 1 of 9).
Variant GFTFDDYAMH / GRSWNSGSIGYADSVK / VIRGGGYFWY gave 4.66, nd, 4.30 (controls 0 of 9).
Variant GFTFDDLAMH / GISWNSWSIGYADSVK / VGRGGGYFDA gave nd, nd, nd (controls 2 of 9).
Variant GFYFDDYAMH / GISWNRGSIGYADSHK / VGRGGGYFDY gave nd, nd, nd (controls 1 of 9).
Variant GFTFRDYAMH / GISWNSKSIGYADSVP / VGRGGGYFDY gave nd, nd, nd (controls 1 of 9).
Variant YFTFDDYPMH / GISWNSRSIGYADSVK / VGRGGGYFDY gave nd, nd, nd (controls 1 of 9).

Nonspecific signal, from three strains lacking the peptide, appeared in 21% of pairings of library AAYL51, centred on 4.54 (5% of these signals below 3.26); values are not corrected for it. For each scFv, signals with the empty controls are counted beside the result. Parent in this assay: reference entry 1.86, copy in this library 0.88.